ChEMBL document CHEMBL4118135, “Optimized allosteric inhibition of engineered protein tyrosine phosphatases with an expanded palette of biarsenical small molecules” (Bioorg Med Chem, 2018)

Sequences of proteins named here, by UniProt entry; tags and fusion partners are left off.
UniProt P35236, whole entry P171C/V205C: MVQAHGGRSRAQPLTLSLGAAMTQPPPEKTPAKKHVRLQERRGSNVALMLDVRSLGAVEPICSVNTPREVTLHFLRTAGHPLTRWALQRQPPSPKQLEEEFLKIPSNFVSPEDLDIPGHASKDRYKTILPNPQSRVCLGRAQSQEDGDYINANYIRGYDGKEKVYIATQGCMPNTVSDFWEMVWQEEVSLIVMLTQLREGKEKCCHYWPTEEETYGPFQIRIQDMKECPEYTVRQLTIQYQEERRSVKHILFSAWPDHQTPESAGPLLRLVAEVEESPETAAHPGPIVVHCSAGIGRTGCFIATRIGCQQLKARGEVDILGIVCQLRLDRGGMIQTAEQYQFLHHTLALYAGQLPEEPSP

Target: Tyrosine-protein phosphatase non-receptor type 7 (Homo sapiens, UniProt P35236, P171C/V205C)
Assay: Inhibition of allosterically sensitized mutant form of His6-tagged human HePTP catalytic domain using pNPP as substrate incubated for 90 mins by quenched phosphatase activity assay

Structure (SMILES): O=C(O)c1ccccc1-c1c2ccc(=O)c([As]3SCCS3)c-2oc2c([As]3SCCS3)c(O)ccc12
- IC50: 125 nM
